{
  "source": "patent US20200315998A1",
  "about": "“COMPOSITION FOR IMPROVING INTESTINAL BARRIER FUNCTION” (SUNTORY HOLDINGS LIMITED, priority 2017, published 2020)",
  "tested_on": "Caco-2 cells",
  "assay": "Evaluation of intestinal barrier function improvement: TEER reduction suppression in Caco-2 monolayer with inflammatory cytokines (TNFα, IL-1β, IFNγ)",
  "format": "cell-based, human",
  "details": "combined use of phenolic compound and gallic acid, each 10 μM",
  "source_text": "The intestinal barrier function improvement effect is indicated by, for example, increase in the electrical resistance value (transepithelial electric resistance: TEER) of the intestinal epithelial cells or suppression of the decrease in the TEER. A substance increasing the TEER or suppressing the decrease thereof has the action of normalizing or strengthening the tight junction in the intestinal epithelial cells. The intestinal barrier function improvement effect is also indicated by decrease in the amount of a substance permeating from the intestinal side of the intestinal epithelial cells to the inside of the body. […] If the addition of a test substance suppresses the decrease in the TEER as compared with the case where the substance is not added, the test substance can be evaluated to have the intestinal barrier function improvement effect.\nCaco-2 cells were cultured for three weeks at 37° C. in Transwell (manufactured by Millicell Corporation) using DMEM (Dulbecco's modified Eagle's medium). […] Then, the transepithelial electrical resistance (TEER) of Caco-2 monolayer cells was measured by Millicell-ERS (manufactured by Millipore Corporation). Cells (TEER≥1000 Ω·cm^2) determined that a sufficient tight junction was formed were selected, and used for the next screening. […]",
  "data": [
    {"substance": "catechin gallate", "values": [
      {"measurement": "Synergistic effect (M.V./T/V/)", "result": 2.3},
      {"measurement": "TEER reduction suppression ratio (%) +gallic acid (actual measurement value) (M.V.)", "result": 101, "unit": "%"}
    ]}
  ]
}
